Molecular target: T1, Arachidonate 5-lipoxygenase (Bos taurus, UniProt Q9BEG3)
T1 sequence (Q9BEG3 whole entry): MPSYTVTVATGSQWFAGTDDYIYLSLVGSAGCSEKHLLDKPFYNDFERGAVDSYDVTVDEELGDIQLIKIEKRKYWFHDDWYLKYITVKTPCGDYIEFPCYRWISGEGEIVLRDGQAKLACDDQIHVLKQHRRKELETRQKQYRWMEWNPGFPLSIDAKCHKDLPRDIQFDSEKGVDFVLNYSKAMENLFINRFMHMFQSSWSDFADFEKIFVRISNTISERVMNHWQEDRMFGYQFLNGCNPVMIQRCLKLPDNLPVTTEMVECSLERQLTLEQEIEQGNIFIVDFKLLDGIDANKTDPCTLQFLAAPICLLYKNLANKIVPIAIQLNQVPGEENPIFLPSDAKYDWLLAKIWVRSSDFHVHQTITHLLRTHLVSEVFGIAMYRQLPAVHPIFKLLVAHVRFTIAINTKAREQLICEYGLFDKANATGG
Test: 5-LO inhibitory activity was determined by inhibition of LTB4 biosynthesis in bovine polymorphonuclear leukocytes (PMNL)
Assay type: functional, cell-based
Procedure, shortened: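 LTB4 biosynthesis measured in bovine polymorphonuclear leukocytes, with NDGA as the standard inhibitor; N = 3 or more, significance versus control at P < 0.01.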

IC50: 10 µM
Structure (SMILES): O=C1c2cccc(O)c2Cc2cccc(O)c21
